From ChEMBL document CHEMBL4368902 (J Med Chem, 2019)

By UniProt entry, the sequences of proteins in these tests, tags left out.
UniProt Q92847, whole entry: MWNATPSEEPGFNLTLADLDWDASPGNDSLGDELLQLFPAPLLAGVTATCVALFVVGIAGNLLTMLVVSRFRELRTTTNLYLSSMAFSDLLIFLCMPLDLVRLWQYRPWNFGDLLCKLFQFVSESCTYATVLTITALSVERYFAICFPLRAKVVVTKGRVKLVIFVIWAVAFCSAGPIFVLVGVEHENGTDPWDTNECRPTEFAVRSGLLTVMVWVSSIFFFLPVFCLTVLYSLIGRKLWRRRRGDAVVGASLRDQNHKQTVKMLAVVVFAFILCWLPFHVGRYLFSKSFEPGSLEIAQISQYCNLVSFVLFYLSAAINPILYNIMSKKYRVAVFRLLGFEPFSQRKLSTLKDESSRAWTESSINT

Assays:
[1] = molecular target: T1, Growth hormone secretagogue receptor type 1 (Homo sapiens, UniProt Q92847); assay: Displacement of […] from SNAP-tagged human GHSR expressed in HEK293T cells after 3 hrs by HTRF assay; assay type: cell-based
[2] = molecular target: T1, Growth hormone secretagogue receptor type 1; assay: Inverse agonist activity at SNAP-tagged human GHSR expressed in HEK293T cells assessed as reduction in inositol phosphate production after 30 mins by HTRF assay; assay type: functional, cell-based

CC(C)C[C@H](NC(=O)[C@H](CC(C)C)NC(=O)[C@@H](Cc1c[nH]c2ccccc12)NC(=O)[C@H](Cc1ccccc1)NC(=O)[C@@H](Cc1c[nH]c2ccccc12)NC(=O)[C@H](CCC(N)=O)NC(=O)[C@@H](Cc1ccccc1)NC(=O)[C@@H]1CCCN1C(=O)[C@H](CCCCN)NC(=O)[C@@H]1CCCN1C(=O)[C@H](N)CCCN=C(N)N)C(N)=O
Ki [1]: 76.7 nM
EC50 [2]: 98.7 nM
